Earlier results as cited in patent US20180256623A1, “COMPOSITIONS AND METHOD FOR REGULATING ADIPOSE TISSUE LIPOLYSIS, INSULIN-RESISTANCE, AND HYPERGLYCEMIA” (University of Virginia Patent Foundation, priority 2015, published 2018).

System: 3T3-L1
Conditions: read-out: IC50 (3T3-L1); Table 3, cyclic amine-derived ureas; means of three experiments; Na = not active; cited from earlier work

SMILES	IC50 [nM]
Cc1c(C(C)C)c(=O)on1C(=O)N1CCN(c2ncccn2)CC1	51
Cc1c(C(C)C)c(=O)on1C(=O)N1CCN(c2ccccc2Cl)CC1	31
